Laboratory results as given in patent publication US20230279020A9, “CARM1 INHIBITORS AND USES THEREOF” (Epizyme, Inc., priority 2013, published 2023).
pIC50: −log10 of the molar value.

Protein sequences, listed by entry. Tags and fused reporters are not part of them. Chains listed by the source or under a name are the forms on record and can include a tag or linker.
UniProt Q86X55, with tags, fused parts or gaps limits assumed: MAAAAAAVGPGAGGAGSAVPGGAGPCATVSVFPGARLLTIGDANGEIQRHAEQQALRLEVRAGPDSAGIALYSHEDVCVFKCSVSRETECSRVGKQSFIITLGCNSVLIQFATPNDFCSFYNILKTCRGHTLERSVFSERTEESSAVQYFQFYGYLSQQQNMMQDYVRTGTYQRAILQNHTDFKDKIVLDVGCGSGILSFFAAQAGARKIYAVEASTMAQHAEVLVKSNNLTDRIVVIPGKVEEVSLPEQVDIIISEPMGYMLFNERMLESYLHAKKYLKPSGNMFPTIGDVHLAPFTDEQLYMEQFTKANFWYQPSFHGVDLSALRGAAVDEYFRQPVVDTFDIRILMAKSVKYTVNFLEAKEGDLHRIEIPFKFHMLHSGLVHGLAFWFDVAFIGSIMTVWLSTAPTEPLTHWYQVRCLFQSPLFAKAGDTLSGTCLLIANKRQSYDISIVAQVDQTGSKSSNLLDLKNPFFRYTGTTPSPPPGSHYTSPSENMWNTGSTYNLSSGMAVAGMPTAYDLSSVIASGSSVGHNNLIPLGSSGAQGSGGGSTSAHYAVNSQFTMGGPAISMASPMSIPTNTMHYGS

Assays:
[1] = system: asymmetric di-methyl PABP1 in RKO cells; assay: RKO methylation assay, In Cell Western (ICW) for asymmetric di-methyl PABP1; conditions: read-out: Cellular IC50; Cellular potencies; PABP1me2a ICW
Human CARM1 (PRMT4) = Human CARM1 (PRMT4) (Homo sapiens (Human), UniProt Q86X55); assay: CARM1 enzyme assay on peptide substrate (3H-SAM Flashplate); conditions: read-out: Biochem IC50; Biochemical potencies, classification codes

SMILES	pIC50 [1]	pIC50 (Human CARM1 (PRMT4))
CNC[C@@H](O)COc1ccc(Cl)c(-c2nc(-c3c(C)noc3C)c(F)c(C3Cc4cnn(C)c4C3)n2)c1 (some centres unmarked)	> 5.30	
CNCC(O)COc1cccc(-c2nc(-c3c(C)noc3C)cc(N3CCN(CC(F)F)[C@@H](C)C3)n2)c1 (some centres unmarked)	> 5.30	> 7.00
CNCC(O)COc1cccc(-c2nc(NCCCN3CCCC3=O)cc(-c3c(C)noc3C)n2)c1 (centres unmarked)	4.70 to 5.00	> 7.00
